Source: PubChem BioAssay
ALDH1A1 inh – ALDH1A1 (human) enzyme inhibition; P00352; Purified ALDH1A1, NADH fluorescence, propionaldehyde substrate; Potency, µM (titrated, usually from 75.3 µM), for inactives: top-dose activity, negative = inhibition, usual class: inhibitors; 220,000 tested, 7.3% active; active means well fitted inhibition curve with a large enough effect, not every such curve was filed as active; inconclusive means small, poorly fitted or top-dose-only effect, or another doubt; inactive means no such curve, though single readings can be large or run the other way;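 further: potency means the concentration at half of the fitted maximal effect; plate controls were no enzyme wells and a reference inhibitor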
miR-21 reporter – raises the signal of a miR-21 reporter; HeLa miR-21 FLuc reporter, luciferase, 48 h; Potency, µM (series often up to 38.3 µM), inactives show top-dose reporter change, positive = more light; 340,000 tested, under 10 active; active = well fitted rising curve with a large enough effect; inconclusive = small, poorly fitted or top-dose-only effect; inactive = no such curve, though single readings can be large or run the other way;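 also: % of control where 0% means no effect; miR-21 action dims this reporter so a rising signal means less miR-21 action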
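HeLa miR-21-FLuc reporter line, endogenous miR-21; 2000 cells/well in DMEM/10% FBS; compound titration up to ~40uM final, 48 h, 37 degree Celsius; luciferase detection reagent, 15 min lysis, CCD luminescence.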
KDM4E inh – JMJD2E (human) inhibition | JMJD2E catalytic domain, FDH-coupled NADH fluorescence (FDH is formaldehyde dehydrogenase) | Potency, µM (series often up to 57.1 µM), for the others: at the top dose activity change, negative = inhibition, most hits filed as inhibitors | 230,000 tested, 1.6% active; active means well fitted inhibition curve with a large enough effect, not every such curve was filed as active; inconclusive means small, poorly fitted or top-dose-only effect, or another doubt; inactive means no such curve, though single readings can be large or run the other way;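 further: potency means the concentration at half of the fitted maximal effect; 0% = wells with enzyme and -100% = buffer wells without enzyme; nearly all actives have a fitted effect of over 50% in size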
G9a inh – inhibitors of human histone lysine methyltransferase G9a | G9a H3K9 monomethylation, AlphaScreen, 2 h | Potency, µM (top dose mostly 102 µM), for the others: at the top dose activity, negative = inhibition, most hits filed as inhibitors | 350,000 tested, 8.8% active; further: potency means the concentration at half of the fitted maximal effect; on the % scale 0 is the no-effect control and ±100 the full control effect; nearly all actives have a fitted effect of over 75% in size
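Compounds were preincubated with 20 nM G9a for 15 min, after which biotinylated H3K9 peptide (500 nM) and SAM (20 uM) started a 2 h room-temperature reaction. Monomethylated product was quantified by antibody-based AlphaScreen chemiluminescence.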
Sfp inh – Sfp phosphopantetheinyl transferase inhibition | Q9F4F7 | Biochemical Sfp PPTase activity, qHTS | Potency, µM, inactives show max response, negative = inhibition, usual class: inhibitors | actives 3.5% (n = 310,000) | AID 1490; active = well fitted inhibition curve with a large enough effect; inconclusive = small, poorly fitted or top-dose-only effect, or another doubt; inactive = no such curve, though single readings can be large or run the other way;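 also: the enzyme is Sfp with the accession as filed and its product quenches rhodamine fluorescence; potency is read from the fitted curve at half-maximal effect; 0% = enzyme reaction without inhibitor and -100% = no enzyme wells; top concentration of the series not given in the record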
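Step 1, compound plus 15 nM Sfp-PPTase, 15 min, room temperature. Step 2, add rhodamine-CoA (5 uM) and BHQ-2-YbbR (12.5 uM). Step 3, read 525/598 nm fluorescence at 0 and 30 min.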
LMNA splice mod – LMNA splicing modulation; Potency, µM (top dose mostly 46.1 µM), without a hit: top-dose ratio change, negative = inhibition, usual class: inhibitors; 200,000 tested, 0.01% active; HeLa LMNA splicing GFP/RFP minigene ratio, 48 h; AID 1487; active means well fitted inhibition curve with a large enough effect in the signal ratio, with a control signal flat, not every such curve was filed as active; inconclusive means small, poorly fitted or top-dose-only effect, or effect the other way, or a change in a side signal; the % refers to the signal ratio; further: potency means the concentration at half of the fitted maximal effect; on the % scale 0 is the no-effect control and ±100 the full control effect
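S3 HeLa stable clones carrying a lamin A-EGFP splicing minigene plus DsRed2 were seeded at 600 cells/well in Opti-MEM with 2% FBS, pin-dosed and incubated 48 h at 37°C. Acumen cytometry (488 nm) gave the GFP/RFP total-intensity ratio.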
An asterisk follows results filed as active; [ ] = another dose, or the depositor's remark. Only some compounds are listed: those with a hit (about 13% of all), similar ones and a draw of the others. Unless noted, the call rests on the fitted dose curve; in most records, active means well fitted curve in the direction sought with a large enough effect; inconclusive means small, poorly fitted or top-dose-only effect, or another doubt; inactive means no such curve, though single readings can be large; an effect the other way counts as inactive or inconclusive.

Screening CCn1c(SCC(=O)Nc2cc(C)on2)nnc1-c1c[nH]c2ccccc12 returned ALDH1A1 inh 28µM*, miR-21 reporter 0%, KDM4E inh 11%, G9a inh -25% and Sfp inh -1%.
For Cc1ccc(C(=O)NCCn2cc(SCC(=O)Nc3cc(C)on3)c3ccccc32)cc1 the results were ALDH1A1 inh 13µM*, miR-21 reporter 12%, KDM4E inh 3%, G9a inh -11%, Sfp inh 3% and LMNA splice mod -8%.
Screening Cc1nnc(NC(=O)CSc2cn(Cc3ccccc3)c3ccccc23)s1 returned ALDH1A1 inh inconclusive, miR-21 reporter -1%, KDM4E inh 9%, G9a inh inconclusive, Sfp inh -11% and LMNA splice mod 6%.
Cc1cc(NC(=O)CSc2cn(C)c3ccccc23)no1 was read as ALDH1A1 inh -10%, miR-21 reporter -7%, KDM4E inh -5%, G9a inh 25µM*, Sfp inh 3% and LMNA splice mod 9%.
For C/C=C(/CC[C@@H](C)[C@H]1CCC2C3=CC[C@H]4[C@H](C)[C@@H](O)CC[C@]4(C)C3CC[C@@]21C)C(C)C (stereo not given in full) the results were ALDH1A1 inh inconclusive, G9a inh -16%[59 µM] and Sfp inh -1%.
For C[C@H](NC(=O)C1CCN(C(=O)[C@H](Cc2ccccc2)NC(=O)OC(C)(C)C)CC1)C(=O)O the results were miR-21 reporter -1%, G9a inh 2% and Sfp inh 4%.
CCCN(C(=O)Cn1ncc2c1-c1ccccc1OC2)c1cccc(C)c1 was read as miR-21 reporter inconclusive and G9a inh -32%[59 µM].
Screening O=C(N[C@@H](Cc1ccccc1)c1nc2ccccc2[nH]1)c1cc([N+](=O)[O-])ccc1Cl returned ALDH1A1 inh inconclusive, miR-21 reporter 3%, KDM4E inh -26%, G9a inh 10µM*, Sfp inh 2% and LMNA splice mod inconclusive.
`CC(C)(C)c1nn(-c2ccccc2)c2[nH]c(=O)c(CNc3ccc4c(c3)OCCO4)cc12` gave ALDH1A1 inh inconclusive, miR-21 reporter -11%, KDM4E inh 0%, G9a inh 35µM*, Sfp inh 9% and LMNA splice mod inconclusive.
Cc1nn(-c2ccccc2)c2[nH]c(=O)c(CNc3ccc(N4CCOCC4)cc3)cc12 was read as ALDH1A1 inh inconclusive, miR-21 reporter 17%, KDM4E inh inconclusive, G9a inh 32µM*, Sfp inh 45µM* and LMNA splice mod -18%.
Cc1cc(C)nc(SCCS(=O)(=O)Cc2ccccc2)n1 was read as ALDH1A1 inh inconclusive, miR-21 reporter 0%, KDM4E inh 0%, G9a inh -1%[12.7 µM], Sfp inh 9% and LMNA splice mod -14%.
Screening Cc1cc(C)nc(SCCCNCc2ccccc2)n1 returned miR-21 reporter -6%, G9a inh 50µM* and Sfp inh -6%.
`Clc1ccc(CNCCCSc2ncccn2)cc1Cl` gave miR-21 reporter -16%, G9a inh 40µM* and Sfp inh 4%.
`Clc1cccc(Cl)c1CNCCCSc1ncccn1` gave miR-21 reporter -9% and Sfp inh -8%.
Cn1c(SCC(=O)N2CCCc3ccccc32)ncc(C(=O)Nc2ccccc2)c1=O was read as miR-21 reporter -14%, G9a inh 2%[59 µM] and LMNA splice mod -4%[46 µM].
For CC(C)c1nc(SCC(=O)N2CCCc3ccccc32)c2c(=O)n(C)c(=O)n(C)c2n1 the results were ALDH1A1 inh -13%, miR-21 reporter -2%, KDM4E inh -1%, G9a inh -2%[59 µM], Sfp inh 45µM* and LMNA splice mod -4%.
Screening O=C(CSc1nccn1-c1ccc(Cl)cc1)N1CCCc2ccccc21 returned ALDH1A1 inh inconclusive, miR-21 reporter -8%, KDM4E inh 1%, G9a inh 50µM*, Sfp inh -2% and LMNA splice mod -1%.

Among those listed so far, 2 have two or more sulfur atoms:
Screening Cc1nnc(NC(=O)CSc2cn(Cc3ccccc3)c3ccccc23)s1 returned ALDH1A1 inh inconclusive, miR-21 reporter -1%, KDM4E inh 9%, G9a inh inconclusive, Sfp inh -11% and LMNA splice mod 6%.
Cc1cc(C)nc(SCCS(=O)(=O)Cc2ccccc2)n1 was read as ALDH1A1 inh inconclusive, miR-21 reporter 0%, KDM4E inh 0%, G9a inh -1%[12.7 µM], Sfp inh 9% and LMNA splice mod -14%.
